## Ab-95 light chain CDR variants: yeast mating affinities

Antigen: PDVDLGDISGINAS, a 14-residue peptide of the SARS-CoV-2 spike HR2 region.

Ab-95 is the parent antibody, in scFv form: VH, then a 15-residue (Gly4Ser)3 linker, then VL. The heavy chain is unchanged in all variants.
VH: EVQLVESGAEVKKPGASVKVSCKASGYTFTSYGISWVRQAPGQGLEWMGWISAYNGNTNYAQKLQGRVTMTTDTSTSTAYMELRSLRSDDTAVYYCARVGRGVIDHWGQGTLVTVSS
VL: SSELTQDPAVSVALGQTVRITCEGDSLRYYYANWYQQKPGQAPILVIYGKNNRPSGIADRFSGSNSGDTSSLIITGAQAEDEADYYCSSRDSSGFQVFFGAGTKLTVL

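The parent was found by panning a naive human phage display library on the peptide. Variants in AAYL52 differ from the parent at up to three CDR positions; double and triple changes were sampled at random. AlphaSeq pools MATa yeast showing the antibodies with MATalpha yeast showing the peptide. After mating in shaken culture at 30 °C for 16 h, diploids were selected and their barcode pairs sequenced. Each replicate has its own calibration line, from reference interactions of the BCL2 family. The assay was run in three technical replicates.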

Substitutions are numbered in sequence along the VL above, starting at 1 (not Kabat). Affinities are written as log10 Kd with Kd in nM; a lower number is a better binder. A pair that was not seen in that replicate is written "n.d."; this usually means weak binding, but a binder can also be missed. Three control strains display no target. For library AAYL52, 28% of the pairings with them gave a signal, with a median of 3.91 and one signal in twenty below 2.90, so weak values seen in few replicates may be background.

log10 Kd, replicates	changes
4.57 4.09 n.d.	Y31W/S92D
2.93 n.d. 2.47	D25G/S88P
1.61 1.66 1.44	D25K/Y30N/Q96C
1.65 1.47 1.38	Y30Q/N51Q/S89K
n.d. n.d. n.d.	E23P/F98E
2.66 3.25 2.83	S89L/G94N
4.03 3.97 3.02	N33I/S93V/V97C
n.d. n.d. n.d.	R28P/S92L/V97Y
1.50 1.51 1.07	Y31G/N52L/S89M
1.80 1.74 1.38	A32C/S88M
2.33 3.25 2.65	R28N/G49I/R53E
1.95 2.05 1.68	Y29S/S88M/F95S
3.91 3.24 3.78	D25K/R28V/A32I
2.75 2.63 2.65	Y31P/G49E/R53N
4.22 4.62 3.61	N51K/S89D/Q96H
4.01 n.d. 4.54	E23L/S26E/G49V
n.d. n.d. n.d.	N33M/S55I/S93W
5.34 n.d. n.d.	L27H/Y29E/S88W
2.47 2.93 2.28	D25P/S26K/G94E
0.86 0.96 0.42	Y30Q/S92V
0.91 0.99 0.47	Y29T/Y30G/Y31I
3.12 n.d. 4.06	L27D/K50R/Q96M
1.51 1.37 0.79	Y30T/R53I
3.40 3.57 3.86	R28M/S93R/V97H
1.86 1.64 1.15	Y30E/N51S
n.d. 4.42 n.d.	E23I/D25E/N33Q
2.27 2.14 1.91	Y31D/S88W/D91Q
2.17 1.93 2.08	R28E/Y29K/S92E
3.84 4.02 4.19	N51I/S55A/S92M
3.09 3.17 3.09	D25L/Y31T/S93N
n.d. n.d. 3.11	Y31L/G49R/N51V
n.d. n.d. n.d.	L27V/G49L/S89V
n.d. n.d. n.d.	S55V/S88Q/F98A
1.41 1.59 0.96	R28Q/Y30H
3.33 2.73 2.22	E23G/R28G/S88L
n.d. 3.47 3.30	G24K/N52M/F98V
2.85 3.04 3.38	R53W/S88I/S93H
2.79 2.85 1.97	G24N/Y29Q/S92H
3.44 2.69 n.d.	G24S/Y29R/S89Y
2.26 2.68 1.95	Y29G/A32G/N52G
n.d. n.d. n.d.	L27D/N33Y/S89W
n.d. 4.14 3.08	G49K/R53K/G94V
n.d. n.d. n.d.	L27K/R90I/F98T
4.04 3.64 3.91	E23L/A32G/Q96Y

Repeated from above, the 4 best binders with a signal in all replicates:

changes	log10 Kd, replicates
Y30Q/S92V	0.86 0.96 0.42
Y29T/Y30G/Y31I	0.91 0.99 0.47
Y30T/R53I	1.51 1.37 0.79
R28Q/Y30H	1.41 1.59 0.96

From the AlphaSeq antibody data of Engelhart et al. 2022 (doi:10.1038/s41597-022-01779-4), copy in the FLAb collection.